Where two headings read alike, the source gives them in different places.
Legend:
AgamORco [1] = target: T1, AgamORco (Anopheles gambiae, UniProt Q7QCC7); test: Competition (binding) assays against the ORco agonist OrcoRAM2 in Bm5 cells expressing AgamORco and Photina; details: for Antagonist type: orthosteric or allosteric relative to the ORco agonist binding site, competition with 50, 100, 150 μM OrcoRAM2
Aedes albopictus = test: Hand in a cage repellence bioassay (human hand landing counts); type: in vivo; details: for RI (at 10nmole/cm^2): repellency index, 10 nmole/cm^2 of exposed hand area, 5-min landing counts
AgamORco [2] = target: T1, AgamORco; test: Insect cell-based (Bm5 cells expressing AgamORco and Photina) Ca2+ influx luminescence screen for ORco antagonists; details: for Ex vivo validation / Cell-based activity (IC50 in μM): new VOC collection; for Ex vivo validation: compounds at 100 μM; for Cell-based activity (IC50 in μM): NA entries; for % response at 100μΜ OA / inhibition of ORco activity: compound 100 μM; for % response at 100μΜ OA: then 100 μM OA, OA alone = 100%; for inhibition of ORco activity: 100 μM OA
AgamORco [3] = target: T1, AgamORco; details: cited from earlier work; for Cell-based activity (IC50 in μM): training-set compounds, NA entries; for Ex vivo validation: training-set pharmacophore hits, previously reported ex vivo activities, ref [26]
AgamORco [4] = target: T1, AgamORco; details: ref [25], cited from earlier work; for Antagonist type: orthosteric or allosteric relative to the OrcoRAM2 binding site, previously identified; for IC50: read-out: Cell-based activity (IC50 in μM), previously identified orthosteric antagonists of the training set
[5] = in the presence of 50 μM ORco agonist (OA, OrcoRAM2)
[6] = in the presence of 100 μM ORco agonist (OA, OrcoRAM2)
[7] = in the presence of 150 μM ORco agonist (OA, OrcoRAM2)

Amino acid sequences for entries named in this document (tags omitted). A change or cut given only in a name is not applied to a line headed by its entry.
UniProt Q7QCC7: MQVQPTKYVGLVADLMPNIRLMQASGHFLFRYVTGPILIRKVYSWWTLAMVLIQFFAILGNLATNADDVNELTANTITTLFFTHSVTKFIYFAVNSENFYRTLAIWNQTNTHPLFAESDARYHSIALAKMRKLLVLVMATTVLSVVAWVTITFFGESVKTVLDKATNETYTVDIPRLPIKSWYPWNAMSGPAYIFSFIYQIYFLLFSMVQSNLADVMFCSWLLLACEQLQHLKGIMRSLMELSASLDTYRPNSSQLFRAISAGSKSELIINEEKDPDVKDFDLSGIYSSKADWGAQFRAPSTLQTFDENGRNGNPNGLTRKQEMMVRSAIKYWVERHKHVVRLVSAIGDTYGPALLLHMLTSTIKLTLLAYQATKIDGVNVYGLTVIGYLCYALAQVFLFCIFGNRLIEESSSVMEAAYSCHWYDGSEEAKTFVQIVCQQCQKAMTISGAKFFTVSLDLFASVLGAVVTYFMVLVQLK

In the case of “Ethyl (E/Z)-2-(cyclohex-2-en-1-ylidene) acetate”, the “pIC50 ± error” value (AgamORco [1]; OA conc. 50 μM) is reported as 3.901 ± 0.3215, the “pIC50 ± error” value (AgamORco [1]; OA conc. 100 μM) is reported as 3.711 ± 0.2615 and the “pIC50 ± error” value (AgamORco [1]; OA conc. 150 μM) is reported as 3.599 ± 0.2537. The IC50 (AgamORco [1]; [5]) was 124 µM, the IC50 (AgamORco [1]; [6]) was 196 µM and the IC50 (AgamORco [1]; [7]) was 252 µM. For the same molecule, the Antagonist type (AgamORco [1]) was “orthosteric”, the “repellence index (RI)” value (Aedes albopictus; dose 50 nmole/cm^2, preliminary tests, data not shown) was “high activities” and the Ex vivo validation (AgamORco [2]) was “√ (Validated antagonist hits have been defined as VOCs causing at least 40% inhibition of ORco activity in the ex vivo assays)”.
With Limonene oxide the “Cell-based activity (IC50 in μM)” value (AgamORco [2]) was “NA (not or marginally active (≤40% inhibition) in the ex vivo assays)” and the Ex vivo validation (AgamORco [2]) was “NA (Not active or less than 40% maximum inhibition in the competition assay)”.
For Aromadendrene, the “pIC50 ± error” value (AgamORco [1]; OA conc. 50 μM) was 4.599 ± 0.09235, the “pIC50 ± error” value (AgamORco [1]; OA conc. 150 μM) was 4.668 ± 0.07359 and the IC50 (AgamORco [1]; [5]) was 25.2 µM. The IC50 (AgamORco [1]; [7]) was 21.5 µM, the Antagonist type (AgamORco [1]) was “allosteric” and the “RI (at 10nmole/cm^2)” value (Aedes albopictus) was 0.25 ± 0.03.
In the case of CC(C)=CCC[C@](C)(O)[C@@H]1CC=C(C)CC1 [compound 77, α-Bisabolol], the IC50 (AgamORco [1]; [6]) is reported as 47 µM and the Antagonist type (AgamORco [1]) is reported as “orthosteric”.
In the case of CCCCC(=O)CCC, the “ORco ex vivo inhibition” value (AgamORco [3]; previous ex vivo activity screens, ref [25]) is listed as “did not display any antagonist activities”, the “Cell-based activity (IC50 in μM)” value (AgamORco [3]; ref [25]) is listed as “NA (not or marginally active (≤40% inhibition) in the ex vivo assays)” and the Ex vivo validation (AgamORco [3]) is listed as “NA (not active (<40% inhibition))”.
With C=CC(=C)CCC=C(C)C the “% response at 100μΜ OA” value (AgamORco [2]) was 71%.
For C=CC(C)(CCC=C(C)C)OC(C)=O (centres unmarked), the “% response at 100μΜ OA” value (AgamORco [2]) is listed as 59%, the “Antagonist type” value (AgamORco [4]) is listed as “orthosteric” and the IC50 (AgamORco [4]) is listed as 67.7 µM. The Ex vivo validation (AgamORco [3]) was “√ (>40% inhibition)”.
For CCOC(=O)/C=C/c1ccccc1, the “Antagonist type” value (AgamORco [4]) is listed as “orthosteric”, the IC50 (AgamORco [4]) is listed as 64.5 µM and the Ex vivo validation (AgamORco [3]) is listed as “√ (>40% inhibition)”.
For Isopropyl cinnamate, the “RI (at 10nmole/cm^2)” value (Aedes albopictus) was 0.29 ± 0.04, the “inhibition of ORco activity” value (AgamORco [2]) was 48% and the “% response at 100μΜ OA” value (AgamORco [2]) was 52%. The “Antagonist type” value (AgamORco [4]) was “orthosteric”, the IC50 (AgamORco [4]) was 41.7 µM and the Ex vivo validation (AgamORco [3]) was “√ (>40% inhibition)”.
For CCCCCCCCC=O, the “inhibition of ORco activity” value (AgamORco [2]) was “reduced activities bordering the arbitrary cutoff inhibition limit” and the “% response at 100μΜ OA” value (AgamORco [2]) was 65%.
With CC1=CC[C@@H](C(C)(C)O)CC1 the “inhibition of ORco activity” value (AgamORco [2]) was “no- or low-activity inhibitors” and the “% response at 100μΜ OA” value (AgamORco [2]) was 100%.
For cis-Jasmone, the “Cell-based activity (IC50 in μM)” value (AgamORco [2]) was “NA (not or marginally active (≤40% inhibition) in the ex vivo assays)” and the Ex vivo validation (AgamORco [2]) was “NA (Not active or less than 40% maximum inhibition in the competition assay)”.
For CC(C)=CCC/C(C)=C/C=O, the “inhibition of ORco activity” value (AgamORco [2]) was “reduced activities bordering the arbitrary cutoff inhibition limit” and the “% response at 100μΜ OA” value (AgamORco [2]) was 69%.
With C=C(C)C1CC=C(C)C(=O)C1 (centres unmarked) the “% response at 100μΜ OA” value (AgamORco [2]) was 71%.
With (2E,4E)-Decadienal the “pIC50 ± error” value (AgamORco [1]; OA conc. 50 μM) was 4.7384 ± 0.05967, the “pIC50 ± error” value (AgamORco [1]; OA conc. 150 μM) was 4.073 ± 0.1405 and the IC50 (AgamORco [1]; [5]) was 18.3 µM. The IC50 (AgamORco [1]; [7]) was 84.4 µM, the Antagonist type (AgamORco [1]) was “orthosteric” and the “RI (at 10nmole/cm^2)” value (Aedes albopictus) was 0.71 ± 0.05. The Ex vivo validation (AgamORco [2]) was “√ (Validated antagonist hits have been defined as VOCs causing at least 40% inhibition of ORco activity in the ex vivo assays)”.
With C=CC(C)(O)CCC=C(C)C (centres unmarked) the “inhibition of ORco activity” value (AgamORco [2]) was “no- or low-activity inhibitors” and the “% response at 100μΜ OA” value (AgamORco [2]) was 98%.
For Bisabolene, the IC50 (AgamORco [1]; [6]) was 47.7 µM, the Antagonist type (AgamORco [1]) was “orthosteric” and the Ex vivo validation (AgamORco [2]) was “√ (Validated antagonist hits have been defined as VOCs causing at least 40% inhibition of ORco activity in the ex vivo assays)”.
In the case of CCCCCC(C)=O, the “Cell-based activity (IC50 in μM)” value (AgamORco [3]; ref [25]) is listed as “NA (not or marginally active (≤40% inhibition) in the ex vivo assays)” and the Ex vivo validation (AgamORco [3]) is listed as “NA (not active (<40% inhibition))”.
With CC(C)=CCC/C(C)=C/CO the “% response at 100μΜ OA” value (AgamORco [2]) was 43%.
In the case of CCCCCCC(C)=O, the “Cell-based activity (IC50 in μM)” value (AgamORco [3]; ref [25]) is listed as “NA (not or marginally active (≤40% inhibition) in the ex vivo assays)” and the Ex vivo validation (AgamORco [3]) is listed as “NA (not active (<40% inhibition))”.
For CC1(C)C2CC3OC3(C)C1C2 (stereo not drawn) [compound 62, α-Pinene oxide], the “pIC50 ± error” value (AgamORco [1]; OA conc. 50 μM) was 4.309 ± 0.2591, the “pIC50 ± error” value (AgamORco [1]; OA conc. 150 μM) was 4.191 ± 0.03993 and the IC50 (AgamORco [1]; [6]) was 52 µM. The Antagonist type (AgamORco [1]) was “allosteric”.
In the case of CCCCCCCC(=O)O, the “% response at 100μΜ OA” value (AgamORco [2]) is reported as 81%.
In the case of Cc1ccc(C(C)C)cc1O, the “RI (at 10nmole/cm^2)” value (Aedes albopictus) is given as 0.17 ± 0.01 and the “Antagonist type” value (AgamORco [4]) is given as “allosteric”.
In the case of Cumin alcohol, the “Antagonist type” value (AgamORco [4]) is listed as “allosteric”.
For CC12CCC(C1)C(C)(C)C2=O (centres unmarked), the “% response at 100μΜ OA” value (AgamORco [2]) was 67%.
For γ-Undecalactone, the “Cell-based activity (IC50 in μM)” value (AgamORco [2]) was “NA (not or marginally active (≤40% inhibition) in the ex vivo assays)” and the Ex vivo validation (AgamORco [2]) was “NA (Not active or less than 40% maximum inhibition in the competition assay)”.
For Geranyl acetone, the “% response at 100μΜ OA” value (AgamORco [2]) was 92%.
With CC1(C)C2CCC1(C)C(O)C2 (centres unmarked) [compound 64, Borneol] the “pIC50 ± error” value (AgamORco [1]; OA conc. 50 μM) was 4.0602 ± 0.2401, the “pIC50 ± error” value (AgamORco [1]; OA conc. 150 μM) was 4.068 ± 0.09235 and the IC50 (AgamORco [1]; [6]) was 86.5 µM. For the same molecule, the Antagonist type (AgamORco [1]) was “allosteric” and the “RI (at 10nmole/cm^2)” value (Aedes albopictus) was 0.58 ± 0.02.
For C=CC(C)(O)CC/C=C(\C)CCC=C(C)C (centres unmarked), the “% response at 100μΜ OA” value (AgamORco [2]) was 51%.
In the case of CC(=O)OC/C=C(\C)CCC=C(C)C, the “% response at 100μΜ OA” value (AgamORco [2]) is reported as 67%.
For Limonene, the “% response at 100μΜ OA” value (AgamORco [2]) was 82%.
For (4R,6R,8R)- trimethyldecan-2-one, the IC50 (AgamORco [1]; [6]) was 57 µM, the Antagonist type (AgamORco [1]) was “orthosteric” and the Ex vivo validation (AgamORco [2]) was “√ (Validated antagonist hits have been defined as VOCs causing at least 40% inhibition of ORco activity in the ex vivo assays)”.
For CC1=CCC2[C@H](C1)C2(C)C (some centres unmarked), the “Antagonist type” value (AgamORco [4]) is listed as “allosteric”.
In the case of CCCC=CC=CC=O [compound 39, 2,4-Octadienal], the “Antagonist type” value (AgamORco [4]) is given as “orthosteric”, the IC50 (AgamORco [4]) is given as 59.8 µM and the Ex vivo validation (AgamORco [3]) is given as “√ (>40% inhibition)”.
With Phytol the “Cell-based activity (IC50 in μM)” value (AgamORco [2]) was “NA (not or marginally active (≤40% inhibition) in the ex vivo assays)” and the Ex vivo validation (AgamORco [2]) was “NA (Not active or less than 40% maximum inhibition in the competition assay)”.
In the case of CCCCCC(=O)O, the “inhibition of ORco activity” value (AgamORco [2]) is reported as “marginal inhibitory activity” and the “% response at 100μΜ OA” value (AgamORco [2]) is reported as 59%.
For CC(=O)CCC=C(C)C, the “Cell-based activity (IC50 in μM)” value (AgamORco [3]; ref [25]) is given as “NA (not or marginally active (≤40% inhibition) in the ex vivo assays)” and the Ex vivo validation (AgamORco [3]) is given as “NA (not active (<40% inhibition))”.

— PMC11652885, “Natural volatiles preventing mosquito biting: An integrated screening platform for accelerated discovery of ORco antagonists” (The Journal of Biological Chemistry, 2024)
